For one substance, IC50 and Ki results are on record in article PMC3479967, “Drug-Drug Interactions Potential of Icariin and Its Intestinal Metabolites via Inhibition of Intestinal UDP-Glucuronosyltransferases” (Evidence-based Complementary and Alternative Medicine : eCAM, 2012).

For test [1], the target named is T1, UGT1A1 (Homo sapiens, UniProt P22309).
T1 sequence (P22309 26-533): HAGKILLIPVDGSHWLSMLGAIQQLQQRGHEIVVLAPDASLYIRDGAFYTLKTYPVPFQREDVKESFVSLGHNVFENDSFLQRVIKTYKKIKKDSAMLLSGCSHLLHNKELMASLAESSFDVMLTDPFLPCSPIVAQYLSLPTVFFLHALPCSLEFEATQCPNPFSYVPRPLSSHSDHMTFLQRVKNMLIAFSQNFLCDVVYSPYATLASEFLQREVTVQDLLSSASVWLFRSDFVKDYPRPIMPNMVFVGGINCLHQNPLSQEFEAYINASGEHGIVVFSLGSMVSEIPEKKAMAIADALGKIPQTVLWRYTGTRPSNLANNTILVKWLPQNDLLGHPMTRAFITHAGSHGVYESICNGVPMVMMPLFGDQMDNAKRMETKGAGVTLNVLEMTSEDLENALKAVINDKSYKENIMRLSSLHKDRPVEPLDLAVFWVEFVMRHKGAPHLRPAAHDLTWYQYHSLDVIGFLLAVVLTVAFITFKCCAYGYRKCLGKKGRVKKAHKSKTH
Briefly: Inhibition of recombinant UGT1A1 activity (4-MU glucuronidation). Particulars: read-out: IC50 for inhibition of UGT1A1 activity; recombinant human UGT1A1, 110 μM 4-MU, mean ± SD. How it is done: (§1) A panel of recombinant human UGT supersomes (UGT1A1, UGT1A3, UGT1A4, UGT1A6, UGT1A7, UGT1A8, UGT1A9, UGT1A10, UGT2B4, UGT2B7, UGT2B15, and UGT2B17) expressed in baculovirus-infected insect cells were purchased from BD Gentest Corp. (Woburn, MA, USA).
(§2) 4-MU, a nonselective substrate of UGTs, was used as probe substrate for all UGTs except UGT1A4. Incubations with each individual enzyme were conducted using conditions previously described. There was a 5 min preincubation step at 37°C before the reaction was started by addition of UDPGA. The incubation mixtures were then centrifuged at 20,500 ×g for 15 min to obtain the supernatant. Aliquots (20 μL) were then analyzed by HPLC. The HPLC system (SHIMADZU, Kyoto, Japan) consisted of an SCL-10A system controller, two LC-10AT pumps, a SIL-10A auto injector, and a SPD-10AVP UV detector. Chromatographic separation was achieved using a Kromasil ODS column (4.6 × 150 mm I.D., 5 μm particle size) at a flow rate of 1 mL/min and UV detection at 316 nm. The mobile phase consisted of 10 mM KH2PO4, pH 2.7 (A) and acetonitrile (B). […]
(§3) Inhibition data from experiments were graphically represented by Dixon plots. K i values were calculated by nonlinear regression using the equations for competitive inhibition (1), noncompetitive inhibition (2), or mixed inhibition (3), [22] […]

Test [2] has as its target T2, UGT1A7 (Homo sapiens, UniProt Q9HAW7).
T2 sequence (Q9HAW7 26-530): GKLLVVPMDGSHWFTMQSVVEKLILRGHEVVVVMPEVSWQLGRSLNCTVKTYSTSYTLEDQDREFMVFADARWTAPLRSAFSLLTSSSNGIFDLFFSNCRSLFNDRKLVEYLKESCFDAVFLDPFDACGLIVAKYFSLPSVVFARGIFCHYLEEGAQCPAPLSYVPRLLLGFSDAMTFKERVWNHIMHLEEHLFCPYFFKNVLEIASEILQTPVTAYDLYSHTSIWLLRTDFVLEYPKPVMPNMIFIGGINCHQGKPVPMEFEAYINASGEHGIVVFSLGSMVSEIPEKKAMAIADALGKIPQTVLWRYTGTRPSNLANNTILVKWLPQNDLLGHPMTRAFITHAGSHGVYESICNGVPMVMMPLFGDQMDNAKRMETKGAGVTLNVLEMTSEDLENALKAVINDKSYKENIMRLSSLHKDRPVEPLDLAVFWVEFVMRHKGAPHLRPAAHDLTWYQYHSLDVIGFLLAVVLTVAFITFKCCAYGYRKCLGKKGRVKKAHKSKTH
The test can be described thus: Inhibition of recombinant UGT1A7 activity (4-MU glucuronidation). The procedure: as §1, §2, §3

For orientation: IC50 means the midpoint of a concentration-inhibition curve. The Ki is the dissociation constant of the complex between target and ligand, obtained from inhibition or displacement.

On to Icariside II, for which the 50% inhibitory concentration (IC50) in test [1] is greater than 100 µM; in test [2] (read-out: IC50 for inhibition of UGT1A7 activity, recombinant human UGT1A7, 15 μM 4-MU, mean ± SD), 2.8 ± 0.1 µM. The Ki in test [2] (read-out: Ki against UGT1A7, recombinant UGT1A7, 4-MU substrate, mean ± standard error) was determined as 6.2 ± 0.5 µM.
